PMC11284788, “NN1213 – A Potent, Long-Acting, and Selective Analog of Human Amylin” (Journal of Medicinal Chemistry, 2024)

Key:
[1] = target: T1, hAMY3R (Homo sapiens, UniProt O60896+P30988); assay: cAMP-responsive element luciferase reporter assay, human AMY3R; assay type: cell-based; design: expressed in transfected cells; settings: ratio of luciferase EC50 values
T1 sequence (P30988 25-474): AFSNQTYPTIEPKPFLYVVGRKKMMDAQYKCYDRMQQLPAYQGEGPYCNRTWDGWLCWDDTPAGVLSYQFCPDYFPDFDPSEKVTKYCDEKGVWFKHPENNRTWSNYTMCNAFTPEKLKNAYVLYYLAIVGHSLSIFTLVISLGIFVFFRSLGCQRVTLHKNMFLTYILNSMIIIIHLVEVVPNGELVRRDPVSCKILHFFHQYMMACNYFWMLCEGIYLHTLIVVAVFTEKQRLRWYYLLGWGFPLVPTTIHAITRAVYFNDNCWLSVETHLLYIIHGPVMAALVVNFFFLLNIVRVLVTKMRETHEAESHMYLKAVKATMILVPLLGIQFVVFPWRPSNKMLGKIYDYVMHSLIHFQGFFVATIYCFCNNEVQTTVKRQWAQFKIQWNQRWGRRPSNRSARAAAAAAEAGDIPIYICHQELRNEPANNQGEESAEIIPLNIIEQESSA
T1 sequence (O60896 24-148 partner): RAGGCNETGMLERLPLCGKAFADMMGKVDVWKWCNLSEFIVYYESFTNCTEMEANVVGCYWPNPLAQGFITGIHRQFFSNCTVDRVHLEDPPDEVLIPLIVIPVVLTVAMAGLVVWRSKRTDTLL

[2] = target: T1, hAMY3R; assay: scintillation proximity binding assay, hAMY3R membranes; design: expressed in transfected cells; host or cells: BHK tk-ts 13, transient co-transfection; membranes for the SPA, whole cells for the species-specific assays; settings: ratio of binding IC50 values
Description: (§1) The apparent binding affinities were determined using a scintillation proximity assay with beads from PerkinElmer and cell membranes containing the AMY3R or CTRs. […] Membranes were harvested and membranes were prepared and kept at −80 °C until use. The assay was performed in a 384-well Optiplate (PerkinElmer). Membranes were mixed with scintillation proximity assay beads in a 1:1 ratio. […] Samples were analyzed on a TopCounter (Packard). The IC50 values were calculated using GraphPad Prism. See Supporting Information S7: SAR Screening Assay Methods (Binding Assays (Human and Rat)) for more information.
(§2) Binding Assays (Human and Rat). Brief descriptions of the methods used to determine binding affinities for SAR analysis are described below. Curves and IC50 values were plotted and calculated in GraphPad Prism using nonlinear regression (one site binding competition analysis), with pIC50 values […]
(§3) containing 20 mM Na-HEPES and 0.1 mM EDTA (pH 7.4, buffer 2). The resulting pellet was re-suspended in buffer 2 and protein concentration was measured (BCA protein assay, Pierce). […]
(§4) prior to centrifugation (1500 rpm, 10 min). Samples were analyzed on TopCounter (Packard). […]
(§5) 7.4, buffer 2). The resulting pellet was re-suspended in buffer 2 and protein concentration was measured (BCA protein assay, Pierce). […]

[3] = target: T2, rAMY3R (Rattus norvegicus, UniProt P32214+Q9JJ73); assay: scintillation proximity binding assay, rAMY3R membranes; design: expressed in transfected cells; host or cells: BHK tk-ts 13, transient co-transfection (FuGENE 6); settings: ratio of binding IC50 values
T2 sequence (P32214 25-479 isoform P32214-2 limits assumed): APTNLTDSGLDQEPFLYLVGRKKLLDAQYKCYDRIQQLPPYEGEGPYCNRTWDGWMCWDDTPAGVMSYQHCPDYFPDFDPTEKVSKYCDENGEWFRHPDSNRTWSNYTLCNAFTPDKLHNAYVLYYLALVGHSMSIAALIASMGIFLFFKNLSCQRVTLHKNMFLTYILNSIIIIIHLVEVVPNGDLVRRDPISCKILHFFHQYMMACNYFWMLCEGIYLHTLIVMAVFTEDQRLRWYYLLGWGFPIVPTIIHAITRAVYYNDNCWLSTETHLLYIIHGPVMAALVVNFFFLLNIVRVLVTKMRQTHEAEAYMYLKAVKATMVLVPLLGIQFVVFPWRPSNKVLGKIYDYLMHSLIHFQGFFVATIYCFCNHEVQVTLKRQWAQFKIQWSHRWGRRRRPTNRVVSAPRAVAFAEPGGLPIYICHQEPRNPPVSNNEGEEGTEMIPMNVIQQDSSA
T2 sequence (Q9JJ73 23-147 partner): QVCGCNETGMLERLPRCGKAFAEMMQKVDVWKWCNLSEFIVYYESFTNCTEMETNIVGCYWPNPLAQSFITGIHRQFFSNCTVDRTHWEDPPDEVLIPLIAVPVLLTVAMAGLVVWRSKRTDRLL
Description: as §1, §2, §3, §4, §5

SMILES: CC[C@H](C)[C@H](NC(=O)[C@H](C)NC(=O)CNC(=O)[C@H](Cc1ccccc1)NC(=O)[C@H](CC(N)=O)NC(=O)[C@@H]1CCCN1C(=O)[C@H](CO)NC(=O)[C@H](CO)NC(=O)[C@H](Cc1c[nH]cn1)NC(=O)[C@H](CCCNC(=N)N)NC(=O)[C@H](CC(C)C)NC(=O)[C@H](Cc1ccccc1)NC(=O)[C@H](CC(N)=O)NC(=O)[C@H](C)NC(=O)[C@H](CC(C)C)NC(=O)[C@H](CCCNC(=N)N)NC(=O)[C@H](CCC(N)=O)NC(=O)[C@@H](NC(=O)[C@H](C)NC(=O)[C@@H]1CSSC[C@H](NC(=O)[C@H](CCCCN)NC(=O)COCCOCCNC(=O)CC[C@H](NC(=O)CCCCCCCCCCCCCCCCCCC(=O)O)C(=O)O)C(=O)N[C@@H](CC(N)=O)C(=O)N[C@@H]([C@@H](C)O)C(=O)N[C@@H](C)C(=O)N[C@@H]([C@@H](C)O)C(=O)N1)[C@@H](C)O)C(=O)N1CCC[C@H]1C(=O)N[C@@H](CO)C(=O)N[C@@H](CO)C(=O)N[C@H](C(=O)N[C@@H](CC(N)=O)C(=O)N[C@H](C(=O)NCC(=O)N[C@@H](CO)C(=O)N[C@@H](CCCNC(=N)N)C(=O)N[C@H](C(=O)N[C@@H](Cc1ccc(O)cc1)C(N)=O)[C@@H](C)O)C(C)C)[C@@H](C)O [Peptide 15]
- ratio hCTR/hAMY3R [1]: 52
- ratio hCTR/hAMY3R [2]: 99
- ratio rCTR/rAMY3R [3]: 88
